# Data published in patent US20100113484A1, “TREATING AGENT OF UROPATHY” (ASKA PHARMACEUTICAL CO., LTD., priority 2006, published 2010).
# Protein sequences, listed by entry. Tags and fused reporters are not part of them. Lines headed by an entry give the natural chain unless they say otherwise; changes in a name come on top.
# UniProt O76083: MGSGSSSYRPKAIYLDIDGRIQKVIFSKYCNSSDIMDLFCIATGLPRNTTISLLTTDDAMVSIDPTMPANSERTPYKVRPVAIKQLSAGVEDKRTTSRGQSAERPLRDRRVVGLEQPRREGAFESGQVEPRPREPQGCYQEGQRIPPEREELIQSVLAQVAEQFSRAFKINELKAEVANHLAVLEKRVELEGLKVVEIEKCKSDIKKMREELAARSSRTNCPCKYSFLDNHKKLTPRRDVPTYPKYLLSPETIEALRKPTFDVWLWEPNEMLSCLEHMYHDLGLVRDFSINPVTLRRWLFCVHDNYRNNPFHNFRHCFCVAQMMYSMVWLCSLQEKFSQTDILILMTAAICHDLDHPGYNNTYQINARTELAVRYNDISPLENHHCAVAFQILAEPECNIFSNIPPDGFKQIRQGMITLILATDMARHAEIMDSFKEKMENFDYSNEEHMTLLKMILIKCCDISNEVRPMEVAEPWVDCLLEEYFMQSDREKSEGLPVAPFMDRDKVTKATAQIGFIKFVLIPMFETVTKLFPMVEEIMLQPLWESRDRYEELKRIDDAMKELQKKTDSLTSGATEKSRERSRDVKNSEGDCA
# How the values were obtained:
# [1] = molecular target: T1, human recombinant PDE5 protein (Homo sapiens, UniProt O76074); experiment: Measurement of PDE5-inhibiting activity; format: biochemical
# T1 construct: made in house; host or cells: COS-1 cells, transient transfection with pcDNA 3.1 (+); supernatant of the homogenate, not purified
# Procedure: Based on the base sequence of hsPDE5A1 registered with GenBank database (accession No.: NM-001083), hsPDE5A1 fragment was amplified by polymerase chain reaction (PCR) under the following conditions, using the following sequence (SIGMA GENOSYS) as the primer and Human Prostate MATCHMAKER cDNA library (CLONTECH) as the template DNA, with KDD plus DNA polymerase (TOYOBO):
# PCR condition: [94° C., 2 min]×1 cycle, [(94° C., 30 sec), (65° C., 30 sec), (68° C., 3 min)]×25 cycles, [68° C., 6 min]×1 cycle
# Thus obtained hsPDE5A1 fragment was given a restricted enzymatic treatment with XBaI and EcoRI, and thereafter inserted into pcDNA 3.1 (+) expression vector (Invitrogen) to let it serve as a human PDE5 expression vector.
# Human PDE5 expression vector-transformed Escherichia coli was mass incubated to produce a large amount of human PDE5 expression vector, which was transiently transfected into COS-1 cells, with LIPOFECTAMINE 2000 Reagent (GIBCO). The cells were homogenized in ice-cooled buffer A and centrifuged at 4° C., 14,000×g for 10 minutes. The supernatant was isolated to provide human recombinant PDE5 protein solution.
# By a method similar to the measurement of PDE9-inhibiting activity, PDE5-inhibiting activity of each of the test compounds was measured, percent inhibition was calculated and IC50 value against PDE5 was determined. […]
# [2] = molecular target: T2, human recombinant PDE9 protein (Homo sapiens, UniProt O76083); experiment: Measurement of PDE9-inhibiting activity ([3H]-cGMP hydrolysis); format: biochemical
# T2 construct: made in house; host or cells: COS-1 cells, transient transfection with pcDNA 3.1 (+); supernatant of the homogenate, not purified
# Procedure: Based on the base sequence of hsPDE9A1 registered with GenBank database (accession No.: AF048837), hsPDE9A1 fragment was amplified by polymerase chain reaction under the following conditions, using the following sequence (Amasham Pharmacia Biotech) as the primer and Human Prostate MATCHMAKER cDNA library (CLONTECH) as the template DNA, with Pfu Turbo DNA polymerase (STRATAGENE):
# PCR condition: [95° C., 5 min]×1 cycle, [(95° C., 1 min), (58° C., 2 min), (72° C., 3 min)]×25 cycles, [72° C., 10 min]×1 cycle
# Thus obtained hsPDE9A1 fragment was given a restricted enzymatic treatment with NheI and NotI, and thereafter inserted into pcDNA 3.1 (+) expression vector (Invitrogen) to let it serve as a human PDE9 expression vector.
# Human PDE9 expression vector-transformed Escherichia coli was mass incubated to produce a large amount of human PDE9 expression vector, which was transiently transfected into COS-1 cells, with LIPOFECTAMINE 2000 Reagent (GIBCO). […]
# . […] Thereafter [^3H]-guanosine was eluted with 3 mL of 3 mol/L aqueous ammonia and its radiation activity was measured with liquid scintillation counter.
# PDE9 inhibition of the tested compound can be calculated by the following formula: […]
# From the percent inhibition at various concentration levels of each tested compound, its IC50 value against PDE9 can be determined.
# [3] = test system: partial urethra obstruction model in guinea pigs; experiment: Dysuria pathological model: partial urethra obstruction model, cystometry; format: in vivo, Hartley female guinea pigs; settings: guinea pig, i.v.
# Procedure: Three-four weeks old Hartley female guinea pigs (Japan SLC, Inc.) were given celiotomy under anesthesia with pentobarbital (30 mg/kg i.p.) and in their urethra to the peripheral side by 1-2 mm from the bladder neck, each a polyethylene tube of 1.4 mm in width and 2.0 mm in inner diameter was placed. After closing the wound, the guinea pigs were bred for at least 3 weeks to produce partial urethra obstruction model in guinea pigs in which occurrence of intravesical pressure rise not accompanied by micturition (uninhibited contraction) and residual urine were observed.
# The model was catheterized under anesthesia with urethane (1 g/kg i.p.) at the apex of urinary bladder and right jugular vein for cystometrography and intravenous administration, respectively. The other end of the bladder catheter was connected to a pressure transducer and infusion pump via a three way stop-cock, and physiological saline was continuously infused into the bladder through the infusion pump at a rate of 0.4 mL/min to induce micturition reflex. Immediately after the micturition reflex was induced, infusion of physiological saline into the bladder was stopped. The intravesical pressure at the time the micturition reflex was induced was measured with the pressure transducer, and the obtained cystometrogram was recorded with pen recorder. The urine voided was collected with disposable type weighing dish and its weight was measured. Further the physiological saline remained in the bladder was sucked with syringe via the bladder catheter and the residual urine volume was measured. The operations of suspending the infusion of physiological saline upon induction of micturition reflex, and about 1 minute thereafter resuming the infusion of physiological saline to induce micturition reflex were repeated plural times (generally 4 times) to stabilize the micturition reflex. […]
structure (smiles),measurement,setting,value
"CC(C)c1n[nH]c2c(=O)[nH]c(Cc3cccc(Cl)c3)nc12 [C-11, reference compound]",IC50,[1],1340 nM
same,IC50,[2],8 nM
same,Frequency of occurrence of uninhibited contraction after administration,[3]; 0.1 mg/kg,0.91 times/min
same,Frequency of occurrence of uninhibited contraction after administration,[3]; 1 mg/kg,1.03 times/min
same,Frequency of occurrence of uninhibited contraction after administration,[3]; 3 mg/kg,1.09 times/min
